In patent US5935998A, “Use of all allylamine derivatives such as terbinafine, in the manufacture of a medicament for the treatment of helicobacter pylori infection or associated diseases” (Novartis AG, priority 1995, dated 1999) one finds LD50 data, which are given here for one compound.

Where two headings read alike, the source gives them in different places. A value given as a limit tells only on which side of the number the result lay.

In general, LD50 refers to the dose at which mortality reaches 50%.

The data set is described as follows: in vivo. Conditions: mouse, acute.

`CN(C/C=C/c1ccccc1)Cc1cccc2ccccc12`: the LD50 reads like this: (ip, i.p., read-out: LD50 i.p.) roughly 560 mg/kg; (po, p.o., read-out: LD50 p.o.) greater than 1000 mg/kg.
